# Measured affinities in a library of Ab-91 heavy chain variants

The measurements come from Engelhart et al. 2022 (doi:10.1038/s41597-022-01779-4) through the FLAb antibody collection.

Binding partner: SARS-CoV-2 spike HR2 peptide, sequence PDVDLGDISGINAS.

Parent: Ab-91, a human scFv built as VL, the linker GGGGSGGGGSGGGGS, VH. Only the CDRs of the heavy chain vary.
VL: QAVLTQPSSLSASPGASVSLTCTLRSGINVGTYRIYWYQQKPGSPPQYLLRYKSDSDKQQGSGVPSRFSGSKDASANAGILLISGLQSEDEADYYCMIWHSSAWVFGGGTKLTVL
VH: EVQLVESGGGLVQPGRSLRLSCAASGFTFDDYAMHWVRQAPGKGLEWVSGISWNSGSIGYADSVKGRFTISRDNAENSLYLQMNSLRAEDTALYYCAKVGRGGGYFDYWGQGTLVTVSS

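In library AAYL51, one, two or three CDR residues were substituted; doubles and triples were drawn at random. In AlphaSeq, yeast of one mating type display the scFv and yeast of the other type display the target. The frequency of each diploid, read from paired DNA barcodes, reflects how well the two displayed proteins bind. The ratio of observed to expected reads was calibrated, replicate by replicate, on BCL2-family standards whose Kd was known from biolayer interferometry. Mating was done three times.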

Positions count from residue 1 of the parent VH; D30A puts A in place of D.
Scale: log10 of Kd in nM, estimated from mating counts; low values are strong binders.
Averages over replicates are reported, and they cover detected replicates only.
"no signal" marks a missing value. The strain was present, yet no cells mated with the target were sequenced in any replicate, which points to weak or no binding.
Entries are sorted by rising average, undetected variants last.
As a blank, each scFv also met three strains without target: over library AAYL51, 21% of these pairings were detected, typically at 4.54 and seldom below 3.26.

| changes | mean, log10 nM | replicates with signal |
|---|---|---|
| D30A+A33S+R101P | 0.86 | 3 of 3 |
| F27I+V99A+G104P | 2.31 | 3 of 3 |
| S55V+K65P+Y108C | 2.32 | 1 of 3 |
| W53T+R101Q+D107N | 2.70 | 3 of 3 |
| D30K+K65T+G102N | 2.91 | 2 of 3 |
| T28G+G56K+R101M | 3.28 | 3 of 3 |
| F27M+Y105F+Y108C | 3.72 | 3 of 3 |
| I51M+G56S+K65N | 3.78 | 1 of 3 |
| F27R+S52E+G102H | 3.79 | 1 of 3 |
| G56V+K65L+R101Q | 3.87 | 2 of 3 |
| G56I+S63G+Y108D | 3.93 | 2 of 3 |
| G56L+I58M | 3.96 | 3 of 3 |
| D30T+A33T+G100Y | 4.27 | 1 of 3 |
| V99E+Y105P+D107M | 4.30 | 1 of 3 |
| T28L+V64H+K65V | 4.31 | 1 of 3 |
| F29Y+G59N+Y105V | 4.33 | 1 of 3 |
| F29D+G50S | 4.34 | 1 of 3 |
| S52L+G100W+G103R | 4.53 | 1 of 3 |
| I51R+G102D | 4.57 | 2 of 3 |
| Y32W+S52C+G103V | 4.59 | 1 of 3 |
| G26T+D31H+D107K | 4.63 | 2 of 3 |
| G103I+G104Q | 4.69 | 2 of 3 |
| F29A+W53F+K65D | 4.78 | 2 of 3 |
| F27K+R101W+Y105S | 4.79 | 1 of 3 |
| N54D+S63C+Y108F | 4.80 | 3 of 3 |
| F27A+S55T+K65E | 4.84 | 3 of 3 |
| S52Y+N54H+Y108T | 4.86 | 1 of 3 |
| H35W+S63W+G104T | 4.88 | 3 of 3 |
| G50Q+I51A+R101T | 4.89 | 1 of 3 |
| F27Q+Y60M+Y108E | 5.25 | 1 of 3 |
| G104Y+Y105E+F106S | 5.30 | 2 of 3 |
| A33Q+S57C+Y105H | 5.32 | 3 of 3 |
| Y60R+D62A+R101K | 5.34 | 1 of 3 |
| F27A+F29S+Y108V | 5.40 | 2 of 3 |
| S55D+G102V | 5.43 | 1 of 3 |
| S55I+V64C+K65A | 5.64 | 2 of 3 |
| D31I+A61V+G100C | 5.68 | 3 of 3 |
| D30A+G104Y+Y108H | no signal | 0 of 3 |
| H35L+Y60C+V64I | no signal | 0 of 3 |
| I51A+S55K+G104W | no signal | 0 of 3 |
| G26H+F29Q+I58C | no signal | 0 of 3 |
| S55P+G100W+F106A | no signal | 0 of 3 |
| N54L+F106W | no signal | 0 of 3 |
| S57D+Y60R+F106L | no signal | 0 of 3 |
| M34L+N54E+Y108W | no signal | 0 of 3 |
| I51Q+R101N+Y108E | no signal | 0 of 3 |
| D31V+H35A+V99Q | no signal | 0 of 3 |
| G50Y+A61D+Y108D | no signal | 0 of 3 |
| G50I+S55K+V99K | no signal | 0 of 3 |
| Y32M+I51F+S52N | no signal | 0 of 3 |
| H35P+G103V+D107R | no signal | 0 of 3 |
| Y32V+R101Q+G102F | no signal | 0 of 3 |
| Y60V+S63T+K65E | no signal | 0 of 3 |
| W53M+Y60M+F106Q | no signal | 0 of 3 |
| F29V+H35A+I51Y | no signal | 0 of 3 |
| G102W+D107M | no signal | 0 of 3 |
| V64Y+K65C+D107Y | no signal | 0 of 3 |
| T28G+G59H+K65G | no signal | 0 of 3 |
| F29T+G56S+G104H | no signal | 0 of 3 |
| N54I+S57V+V64T | no signal | 0 of 3 |
| D31K+A33C+G100D | no signal | 0 of 3 |
| S63L+V99W+G102C | no signal | 0 of 3 |
| F29N+H35E+G102Y | no signal | 0 of 3 |
| S57F+D62Y+G102R | no signal | 0 of 3 |

Again, the first 10 entries without any signal:

changes,"mean, log10 nM",replicates with signal
D30A+G104Y+Y108H,no signal,0 of 3
H35L+Y60C+V64I,no signal,0 of 3
I51A+S55K+G104W,no signal,0 of 3
G26H+F29Q+I58C,no signal,0 of 3
S55P+G100W+F106A,no signal,0 of 3
N54L+F106W,no signal,0 of 3
S57D+Y60R+F106L,no signal,0 of 3
M34L+N54E+Y108W,no signal,0 of 3
I51Q+R101N+Y108E,no signal,0 of 3
D31V+H35A+V99Q,no signal,0 of 3